In PubChem BioAssay AID493098 (Sanford-Burnham Center for Chemical Genomics, 2011):
The list shows a part of the results, in another mix than the full data. Activity calls are given as the source filed them.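 How the source made its calls: active means compounds whose inhibition of the agonist-driven luminescence signal at 20 µM reaches about 50% (limit read from the data); inactive means the rest.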

The chains behind the UniProt entries cited, without tags or fusion partners.
UniProt P51684, whole entry: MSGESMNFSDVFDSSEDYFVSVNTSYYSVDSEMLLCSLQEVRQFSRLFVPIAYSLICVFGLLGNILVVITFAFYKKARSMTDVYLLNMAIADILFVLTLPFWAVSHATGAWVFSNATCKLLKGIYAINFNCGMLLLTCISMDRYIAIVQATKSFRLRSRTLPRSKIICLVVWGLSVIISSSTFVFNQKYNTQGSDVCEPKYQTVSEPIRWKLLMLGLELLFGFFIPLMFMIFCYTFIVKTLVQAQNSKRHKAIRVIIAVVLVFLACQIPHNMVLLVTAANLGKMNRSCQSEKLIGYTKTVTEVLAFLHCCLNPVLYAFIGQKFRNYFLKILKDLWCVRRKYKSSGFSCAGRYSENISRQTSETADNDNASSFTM

target: C-C chemokine receptor type 6 (Homo sapiens) (UniProt P51684); assay: blockers of CCL20-driven beta-arrestin recruitment to CCR6 – cell-based, CHO-K1, luminescence, uHTS, primary screen (AID 493098); conditions: CHO-K1 CCR6 PathHunter beta-arrestin, CCL20-stimulated, at 20 µM, active compounds read high;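 further: cells stimulated with CCL20 at 14 nM final; plate controls were DMSO with CCL20 for no effect and DMSO without agonist for full effect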

SMILES	inhibition
CCC(=O)N(c1ccccc1)C1(COC)CCN(CCc2cccs2)CC1	inactive: 16.3%
CCC(=O)N(c1ccccc1)C1(COC)CCN(CCn2nnn(CC)c2=O)CC1	inactive: 3.66%
